# Experimental data taken from PubChem BioAssay AID1274 (Emory University Molecular Libraries Screening Center, 2008).
# The chains behind the UniProt entries cited, without tags or fusion partners.
# UniProt P14598, whole entry: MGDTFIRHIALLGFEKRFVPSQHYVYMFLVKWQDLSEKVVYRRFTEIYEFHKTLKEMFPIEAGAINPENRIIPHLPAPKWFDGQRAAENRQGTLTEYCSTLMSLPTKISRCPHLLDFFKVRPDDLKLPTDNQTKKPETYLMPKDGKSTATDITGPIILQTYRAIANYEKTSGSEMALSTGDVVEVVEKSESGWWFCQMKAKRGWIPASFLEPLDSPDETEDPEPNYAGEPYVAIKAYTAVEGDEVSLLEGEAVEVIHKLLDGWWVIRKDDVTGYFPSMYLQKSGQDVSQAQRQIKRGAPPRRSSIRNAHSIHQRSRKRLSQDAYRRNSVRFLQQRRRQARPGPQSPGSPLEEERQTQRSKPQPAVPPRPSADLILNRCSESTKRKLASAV
# The entries are a selection whose mix differs from that of the whole data set. Some of these compounds have results that are not shown, active ones among them. Active and inactive are the calls of the source.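 The calls were made as follows: active = inhibition above about 30% (limit read from the data); inactive = the rest.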
# Biological target: Neutrophil cytosol factor 1 (Homo sapiens) (UniProt P14598)
# Experiment: blockers of p47phox binding to p22phox – biochemical, uHTS, NADPH oxidase regulatory subunit, primary screen (AID 1274);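 also: 0% = p47phox with labelled peptide and 100% = labelled peptide alone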
# Conditions: p47phox/p22phox peptide binding, fluorescence polarization, 2 h; at 24.7 µM; active compounds read high
row,SMILES,inhibition
1,COc1cccc(C(=O)NCC2(N3CCCCC3)CCCCC2)c1,inactive: -6.68%
2,O=C(OC1CN2CCC1CC2)C(CO)(c1ccccc1)c1ccccc1 (stereo unspecified),inactive: -14.3%
3,CN(C)c1cccc(C(=O)NCC2(N(C)C)CCCCC2)c1,inactive: -2.7%
4,COc1ccc(Br)c(C(=O)NCC2(N3CCCCC3)CCCCC2)c1,inactive: -93.1%
5,O=C(NCC1(N2CCCCC2)CCCCC1)c1cc([N+](=O)[O-])ccc1Cl,inactive: -0.17%
6,CC(C)N1C(=O)CC2(CCN(CCOC(=O)C(O)(c3ccccc3)c3ccccc3)CC2)C1=O,inactive: 3.37%
7,CCN(CC)CC(C)C(C)OC(=O)C(O)(c1ccccc1)c1ccccc1 (stereo unspecified),inactive: -7.59%
8,Cc1ccccc1C(=O)NCC1(N2CCCCC2)CCCCC1,inactive: -42.2%
9,CN(C)C1CCCC1OC(=O)C(O)(c1ccccc1)c1ccccc1 (stereo unspecified),inactive: -11.5%
10,CCN1CCCC(OC(=O)C2(O)c3ccccc3C=Cc3ccccc32)C1 (stereo unspecified),inactive: -2.58%
11,C=CCN1CCN(CCOC(=O)C(O)(c2ccccc2)c2ccccc2)CC1,inactive: 0.77%
